In BindingDB's records for doi:10.1016/j.jmb.2004.09.032 (Celera, 2004):

Biological target: Urokinase-type plasminogen activator [179-431,I214M,N322A,S371A] (Homo sapiens, UniProt P00749, I214M/N322A/S371A)
Assay: Enzyme Assay and Determination of the Inhibition Constants

Ki: 380 nM
SMILES: N=C(N)c1ccc2[nH]c(-c3cccc(-c4ccccc4)c3O)cc2c1 [CRA-8696]
